The values that follow are results of earlier work, collected in patent US20060135510A1 (The Trustees of the University of Pennsylvania, priority 2004, published 2006).

The test system of this data set is metastatic breast cancer. The note with it: first line of treatment in metastatic breast cancer; cited from earlier work.

Regarding Trastuzumab, the response rate is on record as 25%.
